The assay can be described thus: Ratio of Ki values tested against sigma receptor and Mu receptor.

For `CN1CCC2(c3cccc(O)c3)CC(=O)/C(=C/c3ccc(Cl)c(Cl)c3)C1C2` (stereo not drawn), the Ratio came out at 11.
In the case of `CN1CC[C@@]2(c3cccc(O)c3)CC(=O)/C(=C/c3ccc(Cl)c(Cl)c3)[C@H]1C2`, the Ratio was found to be 7.2.
As for `CN1CC[C@@]2(c3cccc(O)c3)CC(=O)/C(=C/c3ccc(Cl)c(Cl)c3)[C@@H]1C2`, the figure is 0.71.

Source of the values: ChEMBL document CHEMBL1127468, “A marked change of receptor affinity of the 2-methyl-5-(3-hydroxyphenyl)morphans upon attachment of an (E)-8-benzylidene moiety: synthesis and evaluation of a new class of sigma receptor ligands” (J Med Chem, 1994).
